Assay results reported in patent US6589954B1, “Compounds and methods to treat cardiac failure and other disorders” (Scios, Inc., priority 1998, dated 2003).

Protein sequences, listed by entry. Tags and fused reporters are not part of them.
UniProt Q16539, whole entry: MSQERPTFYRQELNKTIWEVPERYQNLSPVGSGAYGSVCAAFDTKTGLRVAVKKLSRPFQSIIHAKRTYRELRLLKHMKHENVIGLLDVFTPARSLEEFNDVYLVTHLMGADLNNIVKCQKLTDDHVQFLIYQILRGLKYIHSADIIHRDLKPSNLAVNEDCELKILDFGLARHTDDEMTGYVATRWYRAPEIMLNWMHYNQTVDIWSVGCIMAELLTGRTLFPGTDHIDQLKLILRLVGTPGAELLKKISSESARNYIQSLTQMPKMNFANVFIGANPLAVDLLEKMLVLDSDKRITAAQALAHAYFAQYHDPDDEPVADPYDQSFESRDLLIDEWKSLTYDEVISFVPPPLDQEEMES

Biological target: p38α (Homo sapiens, UniProt Q16539)
Experiment: Assay for p38 kinase inhibition (p38α);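 also: radiometric p38 kinase assay, peptide substrate phosphorylation with γ-32P-ATP, 40 min at room temperature, incorporated counts measured by scintillation, inhibition relative to uninhibited kinase activity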
Format: biochemical
Settings: read-out: IC50, inhibition of p38α; Table 5

O=C(c1ccc2c(ccn2Cc2ccncc2)c1)N1CCC(Cc2ccccc2)CC1
IC50: 800 nM
